Results as given in US20240245666A1, “DOSING REGIMENS” (Novartis AG, priority 2021, published 2024).

Test: Phase I study, FE study group: asciminib under fasted, low-fat meal and high-fat meal conditions (PK and safety);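 further: healthy volunteers, open-label single-center study, PK parameters from individual plasma concentration-time profiles by non-compartmental analysis, 7-day washout between treatment periods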

For `O=C(Nc1ccc(OC(F)(F)Cl)cc1)c1cnc(N2CC[C@@H](O)C2)c(-c2ccn[nH]2)c1` [asciminib, N-[4-(Chlorodifluoromethoxy)phenyl]-6-[(3R)-3-hydroxypyrrolidin-1-yl]-5-(1H-pyrazol-5-yl)pyridine-3-carboxamide], the “AE severity and serious AEs” value was “all AEs were CTCAE Grade 1 or 2, and there were no serious AEs” and the tolerability (single doses of 40 mg asciminib) was “well tolerated”.
